From PubChem BioAssay AID463082 (The Scripps Research Institute Molecular Screening Center, 2010) come the findings set out here.

By UniProt entry, the sequences of proteins in these tests, tags left out.
UniProt Q13093, whole entry: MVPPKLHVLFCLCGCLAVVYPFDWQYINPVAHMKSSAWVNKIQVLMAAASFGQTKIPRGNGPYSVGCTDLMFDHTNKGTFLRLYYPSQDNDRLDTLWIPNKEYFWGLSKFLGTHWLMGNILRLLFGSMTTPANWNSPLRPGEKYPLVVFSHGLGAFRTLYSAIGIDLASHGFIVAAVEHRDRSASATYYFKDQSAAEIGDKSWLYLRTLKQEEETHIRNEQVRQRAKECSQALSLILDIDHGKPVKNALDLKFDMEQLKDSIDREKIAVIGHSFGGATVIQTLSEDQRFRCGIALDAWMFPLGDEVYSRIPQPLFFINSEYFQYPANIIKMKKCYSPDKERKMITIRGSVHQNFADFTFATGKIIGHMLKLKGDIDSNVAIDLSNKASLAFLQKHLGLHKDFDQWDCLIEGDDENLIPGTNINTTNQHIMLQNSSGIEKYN

Molecules are shown by their SMILES. The list shows a part of the results, in another mix than the full data. Some salts or complexes appear as unconnected parts, following the source record. The source made the active and inactive calls.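 The calls were made as follows: active = inhibition above the mean inhibition across the screen plus 3 SD (cut at about 25% in these data); inactive = the rest.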

The test deals with Platelet-activating factor acetylhydrolase (Homo sapiens) (UniProt Q13093). As to the kind of experiment: pPAFAH enzyme inhibitors, primary screen, biochemical, fluorescence polarization, human (AID 463082).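 Also: inhibitors block binding of the rhodamine activity-based probe so polarization drops; 0% = enzyme with DMSO and 100% = wells lacking pPAFAH.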 To be noted: recombinant pPAFAH, FP-rhodamine probe fluorescence polarization; at 3.39 µM; stronger effect = higher value.
Consider `Cc1ccc(C)c(NP(C)(=O)Oc2ccccc2)c1` (stereo not drawn), for which the inhibition is inactive: -0.01%.

Consider `Cc1cc(C)cc(OP(C)(=O)Nc2ccccn2)c1` (stereo not drawn), for which the inhibition was inactive: -0.74%.

As to `CP(=O)(Nc1cccc(Br)c1)Oc1ccccc1` (stereo not drawn), the inhibition was inactive: 0.84%. Consider `COc1ccccc1OP(C)(=O)Nc1cccc(Br)c1` (stereo not drawn), for which the inhibition was inactive: 2.05%. With `CCOC(=O)c1ccc(NP(C)(=O)Oc2cc(C)cc(C)c2)cc1` (stereo not drawn), the inhibition was inactive: -3.62%.

For `Cc1cc(C)cc(OP(C)(=O)Nc2ccc(C)cc2C)c1` (stereo not drawn), the inhibition is inactive: -1.24%. The result for `CC1=NCCc2c1[nH]c1ccccc21.O=[N+]([O-])c1cc([N+](=O)[O-])c(O)c([N+](=O)[O-])c1` reads inactive: 7.52%; that for `O=C(O)c1cccc(Nc2c([N+](=O)[O-])cc([N+](=O)[O-])cc2[N+](=O)[O-])c1`, inactive: 3.4%. As to `CN1CCCCC1COC(=O)C1(O)c2ccccc2CCc2ccccc21` (stereo not drawn), the inhibition is inactive: 4.85%. With `COc1ccccc1OP(C)(=O)Nc1c(C)cccc1C` (stereo not drawn), the inhibition was inactive: -0.78%.

As to `CCCOc1ccc(NP(C)(=O)Oc2ccc(Cl)cc2)cc1` (stereo not drawn), the inhibition was inactive: 3.6%. In the case of `CP(=O)(Nc1ccc(SC(F)(F)F)cc1)Oc1ccccc1` (stereo not drawn), the inhibition was inactive: 0.46%. Consider `CC1=C2N=C(C=C3N=C(C(C)=C4[N-][C@@](C)([C@@H]5N=C1[C@](C)(CCC(=O)NC[C@@H](C)OP(=O)([O-])O[C@H]1[C@@H](O)[C@@H](n6cnc7cc(C)c(C)cc76)O[C@@H]1CO)[C@H]5CC(N)=O)[C@@](C)(CC(N)=O)[C@@H]4CCC(N)=O)[C@@](C)(CC(N)=O)[C@@H]3CCC(N)=O)C(C)(C)[C@@H]2CCC(N)=O.[C-]#N.[Co+3]`, for which the inhibition is inactive: 1.5%.

As for `O=[N+]([O-])c1cc([N+](=O)[O-])c(Nc2nnnn2CCO)c([N+](=O)[O-])c1`, the inhibition is inactive: 3.63%. Consider `CCOC(=O)C(CC)C1=NC(C)(C)Cc2ccccc21.O=[N+]([O-])c1cc([N+](=O)[O-])c(O)c([N+](=O)[O-])c1` (stereo not drawn), for which the inhibition is inactive: 3.55%.

Turning to `O=[N+]([O-])c1cc([N+](=O)[O-])c(-c2cnn(-c3ccccc3)c2)c([N+](=O)[O-])c1`, the inhibition is inactive: 10.6%.

Consider `Cc1nc2ccc3ccccc3c2s1.O=[N+]([O-])c1cc([N+](=O)[O-])c(O)c([N+](=O)[O-])c1`, for which the inhibition was inactive: -1.02%. In the case of `O=[N+]([O-])c1cc([N+](=O)[O-])c(-n2nnc3ccccc32)c([N+](=O)[O-])c1`, the inhibition was inactive: 0.1%. As for `O=[N+]([O-])c1cc([N+](=O)[O-])c(O)c([N+](=O)[O-])c1.c1ccc(Oc2ccncc2)cc1`, the inhibition is inactive: 3.89%. Consider `CCOC(=O)c1ccc(NP(C)(=O)Oc2ccc(OC)cc2)cc1` (stereo not drawn), for which the inhibition is inactive: 2.2%. For `CCOP(C)(=S)SCC(=O)NC(C)C(=O)O` (stereo not drawn), the inhibition is inactive: -0.82%. For the molecule `CP(=O)(Nc1ccccn1)Oc1ccc(Cl)cc1` (stereo not drawn), the inhibition is inactive: 4.78%. Consider `CP(=O)(Nc1ccc(SC(F)(F)F)cc1)Oc1ccc(Cl)cc1` (stereo not drawn), for which the inhibition is inactive: 10.2%.

Consider `Cc1cccc(C)c1OP(C)(=O)Nc1ccc(SC(F)(F)F)cc1` (stereo not drawn), for which the inhibition was inactive: -13%. In the case of `CP(=O)(Oc1ccccc1)OC(c1ccccc1)C(F)(F)F` (stereo not drawn), the inhibition is inactive: 3.91%. For the molecule `CP(=O)(NC(=O)Nc1ccccc1)Oc1ccccc1` (stereo not drawn), the inhibition is inactive: 1%. For `CCc1ccc(OP(C)(=O)N2CCN(c3ccc([N+](=O)[O-])cc3)CC2)cc1` (stereo not drawn), the inhibition was inactive: -2.67%. `Cc1cc(C)cc(OP(C)(=O)Nc2ccc(SC(F)(F)F)cc2)c1` (stereo not drawn): the inhibition was inactive: 5.95%. With `CP(=S)(Nn1cnnc1)Oc1ccccc1` (stereo not drawn), the inhibition is inactive: -0.26%. Take `CP(=O)(Nc1ccccc1Br)Oc1ccccc1` (stereo not drawn): the inhibition was inactive: 2.87%. With `COc1ccccc1OP(C)(=O)Nc1ccccc1` (stereo not drawn), the inhibition was inactive: 2.3%.

For `COc1ccccc1OP(C)(=O)Nc1ccc(C)cc1` (stereo not drawn), the inhibition was inactive: 5.94%.

On to `Cc1ccc(NP(C)(=O)Oc2ccccc2)c(C)c1` (stereo not drawn), for which the inhibition was inactive: -0.45%. For the molecule `CCOC(=O)c1ccc(NP(C)(=O)Oc2ccccc2)cc1` (stereo not drawn), the inhibition is inactive: 6.98%. The result for `Cc1cc(C)cc(OP(C)(N)=O)c1` (stereo not drawn) reads inactive: -0.45%. For `COc1ccccc1OP(C)(=O)Nc1cc(Cl)ccc1C` (stereo not drawn), the inhibition was inactive: -0.87%. As to `COc1ccc(OP(C)(=O)Nc2cccc(F)c2)cc1` (stereo not drawn), the inhibition was inactive: 4.59%. As to `O=[N+]([O-])c1cc([N+](=O)[O-])c(Nc2cccnc2)c([N+](=O)[O-])c1`, the inhibition was inactive: 16.9%.

As to `O=[N+]([O-])c1ccc2c(c1)C=Nc1ccccc1O2`, the inhibition was inactive: 7.42%. Regarding `CC(C)(C)c1ccc(OP(C)(=O)Nc2ccc(SC(F)(F)F)cc2)cc1` (stereo not drawn), the inhibition was inactive: 2.89%.

Regarding `Cc1cccc(C)c1OP(C)(N)=O` (stereo not drawn), the inhibition was inactive: 1.56%.

Regarding `CCN(CC)CCCOC(=O)C(O)(c1ccccc1)c1ccccc1`, the inhibition was inactive: 2.12%.

`Cc1c(NP(C)(=O)Oc2ccc(C(C)C)cc2)c(=O)n(-c2ccccc2)n1C` (stereo not drawn): the inhibition is inactive: 0.88%. The result for `O=[N+]([O-])c1cc([N+](=O)[O-])c(Nc2ccccn2)c([N+](=O)[O-])c1` reads inactive: 2.46%.

Regarding `CP(=O)(Nc1ccccn1)Oc1ccccc1` (stereo not drawn), the inhibition was inactive: 3.65%.

Turning to `COc1ccccc1OP(C)(=O)Nc1ccc(C)cc1C` (stereo not drawn), the inhibition was inactive: 2.41%.

On to `CCc1ccc(OP(C)(=O)O)cc1`, for which the inhibition was inactive: 2.24%.

`COc1ccccc1OP(C)(=O)Nc1ccc(Br)cc1` (stereo not drawn): the inhibition is inactive: 5.77%. Take `COc1ccc(OP(C)(=O)Nc2ccccn2)cc1` (stereo not drawn): the inhibition was inactive: 2.77%. As to `CN(C)CCOC(=O)C(O)(c1ccccc1)C1CCCC1` (stereo not drawn), the inhibition was inactive: 5.13%. As to `Cc1nc2ccc3ccccc3c2o1.O=[N+]([O-])c1cc([N+](=O)[O-])c(O)c([N+](=O)[O-])c1`, the inhibition was inactive: 4.39%. The result for `CP(=O)(Nc1ccc(Cl)cc1Cl)Oc1ccccc1` (stereo not drawn) reads inactive: 0.12%. For `CP(=O)(OCCOc1ccccc1)OCCOc1ccccc1`, the inhibition is inactive: 6.26%. As for `Cc1cc(C)cc(OP(C)(=O)Nc2cccc(C(F)(F)F)c2)c1` (stereo not drawn), the inhibition is inactive: 1.27%. Regarding `COc1ccccc1OP(C)(=O)Nc1ccc(C)c(C)c1` (stereo not drawn), the inhibition is inactive: 3.6%. As for `COc1ccc(OP(C)(=O)Nc2ccccc2Br)cc1` (stereo not drawn), the figure is inactive: 2.32%; as for `Nc1ccc2c(ccc3cccnc32)n1.O=[N+]([O-])c1cc([N+](=O)[O-])c(O)c([N+](=O)[O-])c1`, inactive: 2.28%. As for `CCOC(=O)c1ccc(NP(C)(=O)Oc2ccc(Cl)cc2)cc1` (stereo not drawn), the inhibition is inactive: 1.41%.

In the case of `CP(=O)(OC12CC3CC(CC(C3)C1)C2)OC12CC3CC(CC(C3)C1)C2`, the inhibition is inactive: 4.07%. The result for `COc1ccccc1OP(C)(=O)Nc1ccccc1Br` (stereo not drawn) reads inactive: -3.18%; that for `CC(C)(C)c1ccc(OP(C)(=O)O)cc1`, inactive: -2.98%. For `CP(=O)(Nc1ccc(Cl)cc1)Oc1ccc(F)cc1` (stereo not drawn), the inhibition is inactive: 0.46%. For the molecule `CN(C)C(=O)c1c([N+](=O)[O-])cc([N+](=O)[O-])cc1[N+](=O)[O-]`, the inhibition was inactive: 4.98%. On to `CCN(CC)CC(O)COC(=O)C(O)(c1ccccc1)C1CCCCC1` (stereo not drawn), for which the inhibition was inactive: -0.14%. The result for `COc1ccc(OP(C)(=O)Nc2ccc(Br)cc2)cc1` (stereo not drawn) reads inactive: 1.45%; that for `COc1ccccc1OP(C)(=O)Nc1c(C)n(C)n(-c2ccccc2)c1=O` (stereo not drawn), inactive: 1.66%; that for `O=C(OCCCN1CCCC1)C(O)(c1ccccc1)C1CCCCC1` (stereo not drawn), inactive: 0.86%. As for `CP(=O)(Oc1ccccc1)N1CCOC1=O` (stereo not drawn), the figure is inactive: 4.12%. The result for `CCc1ccc(OP(C)(=O)Nc2cccnc2)cc1` (stereo not drawn) reads inactive: 4.02%. As to `CP(=O)(Nc1ccc2c(c1)OCCO2)Oc1ccccc1` (stereo not drawn), the inhibition is inactive: -0.93%. With `Cc1ccccc1NP(C)(=O)Nc1ccccc1C`, the inhibition is inactive: 4.68%. Turning to `CP(=O)(Nc1ccc(SC(F)(F)F)cc1)Oc1ccc(F)cc1` (stereo not drawn), the inhibition is inactive: -2.12%.

With `CCOP(C)(=S)SCC(=O)NC(C)(CC)C(=O)O` (stereo not drawn), the inhibition was inactive: -3.07%. With `O=[N+]([O-])c1cc([N+](=O)[O-])c(NCC2CCS(=O)(=O)C2)c([N+](=O)[O-])c1` (stereo not drawn), the inhibition is inactive: 1.12%. Consider `COc1ccc(OP(C)(=O)Nc2cccc(Br)c2)cc1` (stereo not drawn), for which the inhibition is inactive: 7.17%. As for `CN(C)CCOC(=O)C(O)(c1ccccc1)C1CCCCC1` (stereo not drawn), the inhibition was inactive: 0.14%. As for `COc1ccc(NP(C)(=O)Oc2ccccc2OC)cc1` (stereo not drawn), the figure is inactive: 2.81%. Turning to `CCN(CC)CCCOC(=O)C(O)(c1ccccc1)C1CCCCC1` (stereo not drawn), the inhibition is inactive: 0.54%.

In the case of `CP(=O)(Nc1ccccc1)Oc1ccc(F)cc1` (stereo not drawn), the inhibition is inactive: 6.61%.

Turning to `O=[N+]([O-])c1cc([N+](=O)[O-])c(OC2CCCCC2O)c([N+](=O)[O-])c1` (stereo not drawn), the inhibition is inactive: 7.19%. In the case of `CCCCCOc1ccc(NP(C)(=O)Oc2ccc(Cl)cc2Cl)cc1` (stereo not drawn), the inhibition was inactive: 10.5%. For `CCOC(=O)c1ccc(NP(C)(=O)Oc2ccc(F)cc2)cc1` (stereo not drawn), the inhibition was inactive: 0.16%.

For the molecule `COc1ccc(OP(C)(=O)Nc2ccc(SC(F)(F)F)cc2)cc1` (stereo not drawn), the inhibition was inactive: 1.84%.

For `O=C(OC1CN2CCC1CC2)c1ccc([N+](=O)[O-])cc1` (stereo not drawn), the inhibition was inactive: -0.34%. Regarding `O=C(OCCN1CCN(CCOCc2ccccc2)CC1)C(O)(c1ccccc1)c1ccccc1`, the inhibition was inactive: 0.93%. On to `COc1ccc2c(c1O)-c1c(O)c(OC)cc3c1[C@H](C2)[N+](C)(C)CC3.O=[N+]([O-])c1cc([N+](=O)[O-])c([O-])c([N+](=O)[O-])c1[O-]`, for which the inhibition is inactive: 8.1%.

In the case of `CP(=O)(Nc1ccccc1F)Oc1ccccc1` (stereo not drawn), the inhibition is inactive: 4.01%. On to `CC(C)c1ccc(OP(C)(=O)Nc2ccc(SC(F)(F)F)cc2)cc1` (stereo not drawn), for which the inhibition was inactive: -2.5%.

Usually inhibition stands for the relative decrease from the control value, in per cent.
